The values below are quoted from earlier work in US6632979B2, “Rodent HER2 tumor model” (Genentech, Inc., priority 2000, dated 2003).

For the data set, the system named is breast cancer patients whose tumors overexpress HER2. Conditions: cited from earlier work.

With “HERCEPTIN®: humanized version of murine anti-HER2 antibody 4D5”, under “Cobleigh et al. 1999”, the “complete responses, patients” value is 4%; the “median duration of responses” value is recorded as 9.1 months; the “partial responses, patients” value is reported as 11%. Also, the “patients that fail to respond or respond only poorly” value (ErbB2-overexpressing breast cancers, extensive prior anti-cancer therapy) is on record as “approximately 85%”. The “median time to disease progression in all treated patients” value (clinical trial preceding market approval) was 3.1 months.
